# Yeast mating assay B: variants of the scFv Ab-14

Binding partner: SARS-CoV-2 spike HR2 peptide, sequence PDVDLGDISGINAS.

Each scFv is VH, the linker GGGGSGGGGSGGGGS, VL, as in the parent Ab-14, and differs from it in the CDRs of the heavy chain only.
VH: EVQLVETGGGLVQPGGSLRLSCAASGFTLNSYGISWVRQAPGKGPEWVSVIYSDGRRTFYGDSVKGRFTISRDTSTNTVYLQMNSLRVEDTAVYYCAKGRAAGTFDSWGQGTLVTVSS
VL: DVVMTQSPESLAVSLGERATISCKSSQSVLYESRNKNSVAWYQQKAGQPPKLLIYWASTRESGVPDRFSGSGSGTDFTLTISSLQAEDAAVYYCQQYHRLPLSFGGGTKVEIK

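The starting antibody came from a phage panning campaign against this peptide. These sequences belong to a second round, designed from the earlier measurements on random variants of the parent. Group labels follow the data file (Ctrl: baseline library sampled from a position-specific scoring matrix, with some repeated check sequences; Rand: our label for a block that the file lists under HC and that is probably the random mutants of the ten best first-round binders; En: ensemble of fine-tuned language models; GP: Gaussian process model; GPLM: also part of the Gaussian process libraries; HC: hill climbing; Gen: genetic algorithm; Gibbs: Gibbs sampling; a sequence that several methods proposed may carry one label only). In AlphaSeq, yeast of one mating type display the scFv and yeast of the other type display the target. The frequency of each diploid, read from paired DNA barcodes, reflects how well the two displayed proteins bind. Scores were corrected for input abundance and mapped to Kd with protein pairs of known affinity run in the same pool. Each pool was mated in six replicate cultures.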

Each variant is given by its three heavy chain CDRs, as the data file delimits them; those of the parent are GFTLNSYGIS, VIYSDGRRTFYGDSVK, GRAAGTFDS. Each Kd is an estimate from the mating assay, the geometric mean of the replicates in which the pair was seen; lower is stronger. "no signal" marks a missing value. The strain was present, yet no cells mated with the target were sequenced in any replicate, which points to weak or no binding. A sequence measured in both rounds can read differently, since the two assays cover different ranges. A sequence that the file lists under several names has all its replicates pooled. The parent sequence was in this pool as ten entries: three were never detected, three once, and four in most replicates, with averages from 2.2 nM to 240 nM. The authors averaged sequences with at least three values out of six and counted those with two or fewer as poor binders. Three control strains display no target. For all heavy chain designs, 1% of the pairings with them gave a signal, with a median of 120 nM and one signal in twenty below 7.0 nM, so weak values seen in few replicates may be background.

For GFGLNEYGIS | VIYSDGRRTFYGDQVK | GKTAGTFDS [GP_Gibbs], the assay gave 2.2 nM (6 of 6 replicates).
For GFDLDEYGIS | VIYADGKRTFYADSVK | GNVAGTFDL [En_Gen], the assay gave 470 pM (6 of 6 replicates).
For GFGLDEYGIS | VIYADGMRSNYANSVK | GHQAGVIVV [En_Gibbs], the assay gave no signal (0 of 6 replicates).
For GFDLEDYGIS | VIYADGMRTAYSDSVK | GNVAGTFDV [En_Gen], the assay gave 320 pM (6 of 6 replicates).
For GFTLNSYGIS | VIYSDGRRTFYIDSVK | GQAAGTFDV [GP_Gen], the assay gave 74 pM (1 of 6 replicates).
For GFTLNSYGIS | VIYSDGMRTFYGDSVK | GRVAGTFDV [GPLM_Gibbs], the assay gave 13 nM (4 of 6 replicates).
For GFDLNSYGIS | VIYSDGMRTFYGDSVK | GRAAGWFNS [Rand], the assay gave no signal (0 of 6 replicates).
For GFDLNEYGIS | VIYADGKRTAYADSVK | GNNAGTFDT [En_Gen], the assay gave 1.4 nM (6 of 6 replicates).
For GFDVNEYGIS | VIYADGVRRTYQDAVK | GDQSGVVDV [En_Gibbs], the assay gave no signal (0 of 6 replicates).
For GFTLNSYGIS | VIYSDGKRTFYIDSTK | GRASGTFDS [Ctrl], the assay gave no signal (0 of 6 replicates).
For GADLNEYGIS | VIYADGSRVEYENKFK | GDVAGTFDS [En_Gibbs], the assay gave 9.1 nM (6 of 6 replicates).
For GFDLNEYGIS | VIYADGRRTAYSDSVK | GNEAGTFDI [En_Gen], the assay gave 370 pM (5 of 6 replicates).
For GFDLDEYGIS | VIYADGRRTFYSDSVK | GQNAGTFDQ [En_HC], the assay gave 820 pM (6 of 6 replicates).
For GFKLDEYGIS | VIYADGMRTQYADKVK | VGHDGYVVQ [En_Gibbs], the assay gave no signal (0 of 6 replicates).
For GFTLNSYGIS | VIYSDGRRQFYSDSVK | GRAGGTFDS [Rand], the assay gave no signal (0 of 6 replicates).
For GFWLNSYGIS | VIYADGRRTFYGDSVK | GRAAGTFDS [Ctrl+GPLM_Gen], the assay gave 14 nM (12 of 12 replicates).
For GFDLNEYGIS | VIYADGKRTAYTDSVK | GNQAGTFDL [En_Gen], the assay gave 730 pM (6 of 6 replicates).
For GFTLNSYGIS | VIYSDGRRTAYGDSVR | GRAAGTFDS [Ctrl], the assay gave 7.9 nM (6 of 6 replicates).
For GFAIDEFGIS | VIYADGKRTSYSDTVK | GQLGNAFDL [En_Gibbs], the assay gave no signal (0 of 6 replicates).
For GFTLNSYGIS | VIYSDGRRTFYGDSVK | RRAAGTFDS [Ctrl], the assay gave no signal (0 of 6 replicates).
For GFELNSYGIS | VIYSDGRRTFYMDSVK | GQTAGTFDS [GPLM_Gen], the assay gave 15 nM (6 of 6 replicates).
For GFDLNEYGIS | VIYADGRRTFYVDSVK | GSNAGTFDV [En_HC], the assay gave 150 pM (6 of 6 replicates).
For GFTLNSYGIS | VIYSDGRRTQYGDSVK | GRAAGAFDS [Ctrl], the assay gave no signal (0 of 6 replicates).
For GFDLNEYGIS | VIYADGKRTAYIDSVK | GEIAGTFDS [En_HC], the assay gave 410 pM (6 of 6 replicates).
For GFELNEYGIS | VIYADGRRTFYTDSVK | GTNAGTFDM [En_HC], the assay gave 490 pM (6 of 6 replicates).
For GFELNSYGIS | VIYSDGRRTFYADDVK | GRNAGTFDS [GP_Gen], the assay gave 950 pM (6 of 6 replicates).
For GFTLNSYGIS | VIYSDGRRTFYDDSVK | GKAAGTFDS [Ctrl], the assay gave 25 nM (6 of 6 replicates).
For GFNLDEYGIS | VIYADGRRMSYTDSVK | GGLDKYLTD [En_Gibbs], the assay gave 1.3 µM (1 of 6 replicates).
For GHTLNMYGIS | VIYSDGRRTFYGDSVK | GYAAGTFDS [Ctrl], the assay gave 36 nM (1 of 6 replicates).
For GFTLDSYGIS | VIYSDGRRTFYDDSVK | GYVAGTFDS [GP_HC], the assay gave no signal (0 of 6 replicates).
For GFHLNDYGIS | VIYSDGRRTFYGDSVK | GRLAGTFDS [GP_HC], the assay gave 15 nM (6 of 6 replicates).
For GFNLNDYGIS | VIYSDGRRTFYGDSVK | GTAAGTFDS [GP_HC], the assay gave 5.2 nM (6 of 6 replicates).
For GFDLNEYGIS | VIYADGVRTYYADSVK | GGNAGTFDV [En_Gen], the assay gave 250 pM (6 of 6 replicates).
For GFTLNEYGIS | VIYSDGRRCFYTDSVK | GRFAGTFDS [GPLM_HC], the assay gave 76 nM (5 of 6 replicates).
For GEDLQEYGIS | VIYADGFRQSYSDKVK | GQHGGFLVK [En_Gibbs], the assay gave no signal (0 of 6 replicates).
For GFNLAEYGIS | VIYADGRRVYYANAVK | GKNGENFSF [En_Gibbs], the assay gave no signal (0 of 6 replicates).
For GFTLNSYGIS | VIYADGYRTFYGDSVK | GRAAGTFSS [Ctrl], the assay gave no signal (0 of 6 replicates).
For GFTLNDYGIS | VIYSDGRRTFYQDSVK | GRAAGTFIS [GPLM_HC], the assay gave no signal (0 of 6 replicates).
For GFDLNEYGIS | VIYADGKRTAYSDDVK | GNQAGTFDV [En_Gen], the assay gave 420 pM (6 of 6 replicates).

For reference, 7 entries of the list once more:

CDR-H1	CDR-H2	CDR-H3	group	Kd (apparent)	replicates with signal
GFTLNSYGIS	VIYSDGRRTFYDDSVK	GKAAGTFDS	Ctrl	25 nM	6 of 6
GFHLNDYGIS	VIYSDGRRTFYGDSVK	GRLAGTFDS	GP_HC	15 nM	6 of 6
GFTLNSYGIS	VIYSDGRRTFYGDSVK	RRAAGTFDS	Ctrl	no signal	0 of 6
GFTLNEYGIS	VIYSDGRRCFYTDSVK	GRFAGTFDS	GPLM_HC	76 nM	5 of 6
GFNLDEYGIS	VIYADGRRMSYTDSVK	GGLDKYLTD	En_Gibbs	1.3 µM	1 of 6
GFTLNDYGIS	VIYSDGRRTFYQDSVK	GRAAGTFIS	GPLM_HC	no signal	0 of 6
GFDLDEYGIS	VIYADGKRTFYADSVK	GNVAGTFDL	En_Gen	470 pM	6 of 6

Source: Li et al. 2023 (doi:10.1038/s41467-023-39022-2), MIT Lincoln Laboratory and A-Alpha Bio; data file from the FLAb repository.